In this assay the target is T1, OCTN2 (Homo sapiens, UniProt O76082).
T1 sequence (O76082 1-557): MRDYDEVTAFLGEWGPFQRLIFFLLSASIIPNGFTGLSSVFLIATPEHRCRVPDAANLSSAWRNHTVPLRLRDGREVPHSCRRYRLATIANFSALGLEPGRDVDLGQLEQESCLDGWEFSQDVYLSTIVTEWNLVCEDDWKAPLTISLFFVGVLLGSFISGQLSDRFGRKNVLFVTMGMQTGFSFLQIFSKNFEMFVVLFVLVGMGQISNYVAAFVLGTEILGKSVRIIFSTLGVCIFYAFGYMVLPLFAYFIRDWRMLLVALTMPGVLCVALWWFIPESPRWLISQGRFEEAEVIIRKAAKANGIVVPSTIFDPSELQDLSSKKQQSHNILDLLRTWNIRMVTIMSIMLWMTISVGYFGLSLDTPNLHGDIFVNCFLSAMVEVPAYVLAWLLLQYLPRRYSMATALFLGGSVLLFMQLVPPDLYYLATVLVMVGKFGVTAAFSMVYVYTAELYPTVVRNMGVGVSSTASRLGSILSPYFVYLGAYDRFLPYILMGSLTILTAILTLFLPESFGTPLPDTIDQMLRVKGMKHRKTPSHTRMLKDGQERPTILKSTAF
As to the kind of experiment: Inhibition of L-carnitine uptake in stably transfected hOCTN2-MDCK cells. The assay is classed as cell-based. The note with it: Observed Ki (±SEM), test set, 10 min, competitive inhibition model.

As usually defined, the Ki is the equilibrium dissociation constant of an inhibitor or competing ligand from its target.

`Cc1nc2n(c(=O)c1CCN1CCC(c3noc4cc(F)ccc34)CC1)CCCC2` [Risperidone] showed a Ki of 144 ± 17 µM.
